Antibody variant affinities, Ab-14 heavy chain, assay 1

All variants were tested on one target, the spike HR2 peptide PDVDLGDISGINAS (SARS-CoV-2).

Parent scFv Ab-14: VH joined to VL by a (GGGGS)3 linker. Changes lie in the heavy chain CDRs alone.
VH: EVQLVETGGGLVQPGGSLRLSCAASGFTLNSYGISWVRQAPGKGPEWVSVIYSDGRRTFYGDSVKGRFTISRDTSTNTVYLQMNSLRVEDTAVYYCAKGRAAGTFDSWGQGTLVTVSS
VL: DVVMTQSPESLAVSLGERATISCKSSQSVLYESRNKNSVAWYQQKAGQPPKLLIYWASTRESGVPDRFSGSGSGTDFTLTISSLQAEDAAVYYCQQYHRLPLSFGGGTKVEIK

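Phage display of a naive human antibody library on the peptide gave the parent. AAYL49 was designed without a model: most single CDR substitutions and a random sample of double and triple ones. In AlphaSeq, yeast of one mating type display the scFv and yeast of the other type display the target. The frequency of each diploid, read from paired DNA barcodes, reflects how well the two displayed proteins bind. Read counts were normalised to the haploid input and turned into Kd by a linear fit to BCL2-family pairs of known affinity, for each replicate. Each pool was mated in three replicate cultures.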

Each variant is given by its three heavy chain CDRs, as the data file delimits them; those of the parent are GFTLNSYGIS, VIYSDGRRTFYGDSVK, GRAAGTFDS.
The read-out is the apparent dissociation constant on a log10 scale (nM): the lower, the stronger.
An entry "ND" has no value in the source: the pair was not observed among the diploids in that replicate. This suggests poor binding but is not conclusive.
Three control strains display no target. For library AAYL49, 15% of the pairings with them gave a signal, with a median of 4.06 and one signal in twenty below 2.83, so weak values seen in few replicates may be background. The control count says in how many pairings with the empty strains this scFv gave a signal, with their mean in brackets.

CDR-H1,CDR-H2,CDR-H3,"replicates, log10 nM",signal with controls
GFDLNSYGIS,VIMSDGRRTFQGDSVK,GRAAGTFDS,ND / 3.86 / 4.05,2 of 9 (3.55)
GFTLNSYGIS,VIYSDGRRTFYGTSVK,WRAAGTFVS,ND / 2.15 / ND,1 of 9 (2.43)
GFTLNSYGIS,VIYSDGRRTFYGDHAK,GRALGTFDS,3.57 / 2.66 / 3.06,1 of 9 (5.34)
GFTLNSYTIS,VIYSDGRRTFAGDSDK,GRAAGTFDS,ND / ND / ND,3 of 9 (3.94)
GFTKNSYGIS,VIYSDGRRTFYGDSVK,GRAFGTFDS,ND / 3.45 / ND,2 of 9 (3.94)
GFTLNSYGIS,VTYSDGRRTFYGDSVK,GRAAGRWDS,4.78 / ND / ND,0 of 9
GFTLNCYGIS,VIYSDGRRTFYSHSVK,GRAAGTFDS,2.43 / 2.70 / 2.45,1 of 9 (3.61)
GFTLQLYGIS,VIYSDGRRCFYGDSVK,GRAAGTFDS,ND / ND / 6.04,5 of 9 (3.98)
GFTLDSYGIS,AIYSDGRRTFYGDSVK,GRAAQTFDS,4.96 / ND / 4.88,2 of 9 (4.12)
GFTLNSYGIS,VIYSLGRRWFYGDSVK,GRAAGTFDS,ND / 4.63 / 5.86,2 of 9 (4.32)
GFRLNSYGIS,VIYSGGRRTFYGDSVK,GRAAGTFDS,ND / ND / ND,1 of 9 (4.34)
GGTLNSYGIS,VIYSDGRRTFYGDSVK,GRCAGMFDS,1.75 / 1.88 / 2.01,4 of 9 (3.72)
GSTLNSYGIS,VIYSDGRRTFYGDSVK,GRAACTFQS,0.65 / 0.87 / 0.79,2 of 9 (4.28)
GFTLNSYGAS,WIYSDMRRTFYGDSVK,GRAAGTFDS,ND / ND / ND,0 of 9
GFTLNSYGIP,VIYSDGRRTFYMLSVK,GRAAGTFDS,5.76 / ND / ND,1 of 9 (4.49)
GFTLNSYGKS,VIYSDGRRTFKGDSVK,GRAYGTFDS,ND / ND / 3.40,1 of 9 (3.75)
GFTLNRYGIS,VIYSDGRRTFYGDSVK,GRATGTWDS,1.97 / 1.90 / 2.07,1 of 9 (4.88)
GFTLNSYGIS,VIYSDGRRTFNIDSVK,GRAAGTKDS,ND / ND / ND,0 of 9
GFTLNSYGIS,VIYSDGRRTFYGDKVK,GRACATFDS,ND / ND / ND,0 of 9
GFTLNSYGFS,VIYSDGRRTFYGDSNK,GRAAGTFMS,ND / ND / ND,2 of 9 (4.01)
GFRLTSYCIS,VIYSDGRRTFYGDSVK,GRAAGTFDS,ND / 3.25 / ND,1 of 9 (3.01)
ILTLNSYGID,VIYSDGRRTFYGDSVK,GRAAGTFDS,ND / ND / ND,2 of 9 (2.80)
GFTLNSYGIS,NIYSDGRPTFYGDSVK,MRAAGTFDS,ND / ND / ND,1 of 9 (1.64)
GFYLNCYGIS,VIYSDGRRTFYGDSVK,GRAAGTFYS,1.38 / 1.32 / 1.42,1 of 9 (3.82)
GFTLNSYGIS,VIYSDGRYTFYCDSVK,GRAAGTFDP,4.30 / 3.61 / 3.88,6 of 9 (4.34)
GFTLNSYGIS,DIYSDGRRTFYGDSVK,GRFAGTFDS,ND / ND / ND,0 of 9
GFTLNSYLIS,VIYSDGRRTFYGDSRK,GRAAGHFDS,ND / 4.91 / ND,2 of 9 (3.90)
GRTLNSYGIS,VIYSDGRRTFYGDSVK,GRAAGAFDW,2.85 / 2.94 / 3.16,1 of 9 (3.60)
GFTLNSYGIS,VIYSDGRRTFYSDSVK,GRAGGTFDS,-0.34 / 0.01 / -0.40,0 of 9
GGTLNSYMIS,DIYSDGRRTFYGDSVK,GRAAGTFDS,ND / ND / ND,0 of 9
GFTLNSYGIS,VIYSDGRRTFYGDYIK,GRAAGGFDS,ND / ND / ND,1 of 9 (4.83)
GFTLNSYGIS,VICSDGRRTFYCDSTK,GRAAGTFDS,5.71 / 3.71 / ND,4 of 9 (4.80)
GFTLNSYGIN,VIYGDGRRTFYGDSVK,GRKAGTFDS,ND / ND / ND,1 of 9 (4.60)
GFTLNSYGIS,VIYSDGRGTFYGDSWK,ERAAGTFDS,ND / ND / ND,1 of 9 (3.23)
GQTLHSYGIS,VIYSDGRRTFYGDSVK,GRAAYTFDS,ND / ND / ND,0 of 9
GFDLNSYQIS,VIYSDGRRYFYGDSVK,GRAAGTFDS,ND / 2.82 / ND,1 of 9 (3.44)
GFHLNSYVIS,VIYSDGDRTFYGDSVK,GRAAGTFDS,4.70 / 4.54 / 4.75,3 of 9 (4.77)
GFTLNSPGIS,VIYSDGRRIFYGDSQK,GRAAGTFDS,ND / ND / 3.58,1 of 9 (3.99)
GFTLNSYGIS,VIYSDGRRTFHGDVVK,GRWAGTFDS,ND / ND / ND,0 of 9
GFTLNSYGIS,VIYSDGRRTFYGASVK,GRAAGTPNS,ND / ND / ND,0 of 9
GFTLNSYGIS,VIYSDGRRMFYGDSVK,VRAAGTFDS,3.67 / ND / ND,1 of 9 (3.93)
GFTLNSYGIS,VIYSDGRDTFYGDSVK,GSAAGTFDS,ND / ND / ND,0 of 9
GFTLNSYHIS,HIYSDGRRTFYGDSVK,GRAAGFFDS,ND / 3.91 / ND,0 of 9
GYTLNSYGIS,VIYSDGRRTFYGDAVK,GRAAGTFDS,2.04 / 2.13 / 2.47,2 of 9 (3.65)

From the list, the first 7 with no signal in any replicate:

CDR-H1,CDR-H2,CDR-H3,"replicates, log10 nM",signal with controls
GFTLNSYTIS,VIYSDGRRTFAGDSDK,GRAAGTFDS,ND / ND / ND,3 of 9 (3.94)
GFRLNSYGIS,VIYSGGRRTFYGDSVK,GRAAGTFDS,ND / ND / ND,1 of 9 (4.34)
GFTLNSYGAS,WIYSDMRRTFYGDSVK,GRAAGTFDS,ND / ND / ND,0 of 9
GFTLNSYGIS,VIYSDGRRTFNIDSVK,GRAAGTKDS,ND / ND / ND,0 of 9
GFTLNSYGIS,VIYSDGRRTFYGDKVK,GRACATFDS,ND / ND / ND,0 of 9
GFTLNSYGFS,VIYSDGRRTFYGDSNK,GRAAGTFMS,ND / ND / ND,2 of 9 (4.01)
ILTLNSYGID,VIYSDGRRTFYGDSVK,GRAAGTFDS,ND / ND / ND,2 of 9 (2.80)

Reference: Engelhart et al. 2022, doi:10.1038/s41597-022-01779-4. File: FLAb, binding data.